# From article PMC5345230 (2017)
# B1: TWIST1 (wild type) [human] / RELA (wild type), NF-kB subunit p65 [not stated] (parent complex)
# chain 1: MMQDVSSSPVSPADDSLSNSEEEPDRQQPPSGKRGGRKRRSSRRSAGGGAGPGGAAGGGVGGGDEPGSPAQGKRGKKSAGCGGGGGAGGGGGSSSGGGSPQSYEELQTQRVMANVRERQRTQSLNEAFAALRKIIPTLPSDKLSKIQTLKLAARYIDFLYQVLQSDELDSKMASCSYVAHERLSYAFSVWRMEGAWSMSASH
# chain 2: MDELFPLIFPAEPAQASGPYVEIIEQPKQRGMRFRYKCEGRSAGSIPGERSTDTTKTHPTIKINGYTGPGTVRISLVTKDPPHRPHPHELVGKDCRDGFYEAELCPDRCIHSFQNLGIQCVKKRDLEQAISQRIQTNNNPFQVPIEEQRGDYDLNAVRLCFQVTVRDPSGRPLRLPPVLSHPIFDNRAPNTAELKICRVNRNSGSCLGGDEIFLLCDKVQKEDIEVYFTGPGWEARGSFSQADVHRQVAIVFRTPPYADPSLQAPVRVSMQLRRPSDRELSEPMEFQYLPDTDDRHRIEEKRKRTYETFKSIMKKSPFSGPTDPRPPPRRIAVPSRSSASVPKPAPQPYPFTSSLSTINYDEFPTMVFPSGQISQASALAPAPPQVLPQAPAPAPAPAMVSALAQAPAPVPVLAPGPPQAVAPPAPKPTQAGEGTLSEALLQLQFDDEDLGALLGNSTDPAVFTDLASVDNSEFQQLLNQGIPVAPHTTEPMLMEYPEAITRLVTGAQRPPDPAPAPLGAPGLPNGLLSGDEDFSSIADMDFSALLSQISS
# Variants of: B1
# Assay: CoIP (RELA pulldown, western blot quantitation); transient expression in HEK293 cells; duplicate CoIP western blots; parent: 100; read off a plot
row,Variant,percent of parent [%]
1,chain 1 MMQDVSSSPVSPADDSLSNSEEEPDRQQPPSGKRGGRKRRSSRRSAGGGAGPGGAAGGGVGGGDEPGSPAQGKRGKKSAGCGGGGGAGGGGGSSSGGGSPQSYEELQTQRVMANVRERQRTQSLNEAFAALRKIIPTLPSDKLSKIQTLKLAARYIDFLYQVLQSDELDSKMASCSYVAHERLSYAFSVWRMAGAWSMSASH [chain 1 E193A],~52
2,chain 1 MMQDVSSSPVSPADDSLSNSEEEPDRQQPPSGKRGGRKRRSSRRSAGGGAGPGGAAGGGVGGGDEPGSPAQGKRGKKSAGCGGGGGAGGGGGSSSGGGSPQSYEELQTQRVMANVRERQRTQSLNEAFAALRKIIPTLPSDKLSKIQTLKLAARYIDFLYQVLQSDELDSKMASCSYVAHERLSYAFSVWAMEGAWSMSASH [chain 1 R191A],~36
3,chain 1 MMQDVSSSPVSPADDSLSNSEEEPDRQQPPSGKRGGRKRRSSRRSAGGGAGPGGAAGGGVGGGDEPGSPAQGKRGKKSAGCGGGGGAGGGGGSSSGGGSPQSYEELQTQRVMANVRERQRTQSLNEAFAALRKIIPTLPSDKLSKIQTLKLAARYIDFLYQVLQSDELDSKMASCSYVAHERLSYAFSVARMEGAWSMSASH [chain 1 W190A],~41
